These results are taken from patent publication US20220185818A1, “PYRROLOHETEROCYCLIC DERIVATIVE, PREPARATION METHOD THEREFOR, AND APPLICATION THEREOF IN MEDICINE” (Jiangsu Hengrui Medicine Co., Ltd., priority 2019, published 2022).

Amino acid sequences for entries named in this document (tags omitted). Residues count along the entry.
UniProt P27361, whole entry: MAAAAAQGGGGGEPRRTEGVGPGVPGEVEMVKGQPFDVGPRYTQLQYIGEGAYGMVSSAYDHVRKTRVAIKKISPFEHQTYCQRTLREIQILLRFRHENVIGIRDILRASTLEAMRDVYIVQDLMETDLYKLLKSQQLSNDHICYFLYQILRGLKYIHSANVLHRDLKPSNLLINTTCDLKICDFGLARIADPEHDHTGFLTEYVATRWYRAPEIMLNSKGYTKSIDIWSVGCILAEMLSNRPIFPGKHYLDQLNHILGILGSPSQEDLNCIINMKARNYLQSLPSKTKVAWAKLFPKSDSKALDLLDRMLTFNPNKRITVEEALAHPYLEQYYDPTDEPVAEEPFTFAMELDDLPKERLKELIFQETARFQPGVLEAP
UniProt P28482, 2-360 limits assumed: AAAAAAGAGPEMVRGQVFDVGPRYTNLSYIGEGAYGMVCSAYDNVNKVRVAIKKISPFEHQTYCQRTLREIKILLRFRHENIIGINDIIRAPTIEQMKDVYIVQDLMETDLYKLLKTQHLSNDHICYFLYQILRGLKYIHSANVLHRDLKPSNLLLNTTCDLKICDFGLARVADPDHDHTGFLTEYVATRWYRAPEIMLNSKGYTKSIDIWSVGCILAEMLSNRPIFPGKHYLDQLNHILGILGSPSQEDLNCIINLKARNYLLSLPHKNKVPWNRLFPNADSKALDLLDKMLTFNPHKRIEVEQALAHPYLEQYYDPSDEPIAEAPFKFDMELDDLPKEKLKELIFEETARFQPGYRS

Experiment [1] addresses T1, ERK1 (Homo sapiens, UniProt P27361).
T1 construct: purchased R&D 1879-KS-010
Description: ERK1 enzyme activity test (ADP-Glo Kinase Assay). The class given is biochemical. On the procedure: (§1) The purpose of this experiment is to detect the inhibitory ability of the compounds on the ERK1 enzyme activity, and evaluate the in vitro activity of the compounds based on the IC50. The ADP-Glo™ Kinase Assay Kit is used in this experiment. Under the action of the enzyme, the substrate is phosphorylated and ADP is produced at the same time. The ADP-Glo reagent is added to remove the unreacted ATP in the reaction system, and the ADP produced by the reaction is detected with the kinase detection reagent. In the presence of the compound, the inhibition rate of the compound is calculated by measuring the signal value.
ATP was diluted to 300 μM with the buffer. The compound was dissolved in DMSO to prepare a stock solution with an initial concentration of 20 mM, and then Bravo (SGC120TH34702, Agilent Technologies) was used to dilute the stock solution to desired concentrations. […] The 384-well plate was taken out and placed in a microplate reader (BMG labtech, PHERAstar FS), and the chemiluminescence was measured by the microplate reader. […]
In general terms: In ADP-Glo the light output rises with the ADP produced.

The subject of experiment [2] is Colo205 cells. In words: In vitro proliferation inhibition test on Colo205 tumor cells (CellTiter-Glo). The class given is cell-based. To be noted: Homo sapiens, COLO 205, 72 h; 3 days of culture, CTG; read-out: IC50 value of the inhibition on in vitro Colo205 tumor cell proliferation. On the procedure:
The purpose of this experiment is to test the inhibitory activity of the compounds on the proliferation of Colo205 cells (CCL-222, ATCC) in vitro. The cells were treated in vitro with different concentrations of the compounds. After 3 days of culture, the cell proliferation was tested with CTG (CellTiter-Glo® Luminescent Cell Viability Assay, Promega, Catalog No. G7573) reagent, and the in vitro activity of the compounds was evaluated according to the IC50 value.
In the following, taking the in vitro proliferation inhibition test method of Colo205 cells as an example, the method in the present disclosure for testing the in vitro proliferation inhibitory activity of the compounds of the present disclosure is described. This method is also applicable to, but not limited to, the in vitro proliferation inhibitory activity test on other tumor cells.
Colo205 cells were digested, centrifuged and then resuspended. The single cell suspension was mixed well, and the density of viable cells was adjusted to 5.0×10^4 cells/ml with cell culture medium (RPMI1640+2% FBS), and 95 μl/well was added to a 96-well cell culture plate. […]
The compound was dissolved in DMSO and prepared into a stock solution with an initial concentration of 20 mM. […] In a microplate reader (BMG labtech, PHERAstar FS), chemiluminescence was measured with the microplate reader. […]
In general terms: In ATP-based viability assays light output follows the ATP content of the culture.

Experiment [3] has as its target T2, ERK2 (Homo sapiens, UniProt P28482).
T2 construct: purchased R&D 1879-KS-010
Description: ERK2 enzyme activity test (ADP-Glo Kinase Assay). Format: biochemical. On the procedure:
as §1, with “ERK2” for “ERK1”, “by” for “with”
ATP was diluted to 500 μM with the buffer. The compound was dissolved in DMSO to prepare a stock solution with an initial concentration of 20 mM, and then Bravo (SGC120TH34702, Agilent Technologies) was used to dilute the stock solution to desired concentrations. Finally, a 3 μL of a mixed solution of enzyme and substrate, and 1 μL of different concentrations of the compound (the initial concentration is 50 μM, 4-fold dilution) were added to each well of the 384-well plate, and the plate was incubated at 30° C. for 10 minutes, and finally 1 μL of 500 μM ATP solution was added to each well, and the plate was incubated at 30° C. for 2 hours. Then 5 μL of ADP-Glo was added, and the plate was incubated at 30° C. for 40 minutes. Then 10 μL of kinase detection buffer was added, and the plate was incubated at 30° C. for 40 minutes. The 384-well plate was taken out and placed in a microplate reader (BMG labtech, PHERAstar FS), and the chemiluminescence was measured by the microplate reader.
Microsoft Excel, Graphpad Prism 5 was used to process and analyze the data.

[4] abbreviates: read-out: IC50 value of the inhibition on ERK2 enzyme activity.

Read-outs that look alike come from different tables or passages of the source.

For `Cc1cnc(Nc2ccnn2C)nc1-c1cc2n(c1)C(=O)N([C@H](CO)c1cccc(Cl)c1)C2` [Example 3, (S)-2-(1-(3-Chlorophenyl)-2-hydroxyethyl)-6-(5-methyl-2-((1-methyl-1H-pyrazol-5-yl)amino)pyrimidin-4-yl)-1H-pyrrolo[1,2-c]imidazol-3(2H)-one], the IC50 in experiment [1] stood at 3 nM; in experiment [2] it was 26 nM; in experiment [3], 2 nM. For `C[C@@H](CO)Nc1ncc(Cl)c(-c2cc3n(c2)C(=O)N([C@H](CO)c2cccc(Cl)c2)C3)n1` [Example 5, 6-(5-Chloro-2-(((S)-1-hydroxypropan-2-yl)amino)pyrimidin-4-yl)-2-((S)-1-(3-chlorophenyl)-2-hydroxyethyl)-1H-pyrrolo[1,2-c]imidazol-3(2H)-one], in experiment [3] (setting [4]), the IC50 is 7 nM. On the same count and under the same terms, as for `C[C@H](CO)Nc1ncc(Cl)c(-c2cc3n(c2)C(=O)N([C@H](CO)c2cccc(Cl)c2)C3)n1` [Example 8, 6-(5-Chloro-2-(((R)-1-hydroxypropan-2-yl)amino)pyrimidin-4-yl)-2-((S)-1-(3-chlorophenyl)-2-hydroxyethyl)-1,2-dihydro-3H-pyrrolo[1,2-c]imidazol-3-one], the figure is 39 nM; as for `Cc1cnc(Nc2ccnn2C)nc1-c1cc2n(c1)C(=O)N([C@H](CO)c1cccc(Cl)c1)CC2` [Example 9, (S)-2-(1-(3-Chlorophenyl)-2-hydroxyethyl)-6-(5-methyl-2-((1-methyl-1H-pyrazol-5-yl)amino)pyrimidin-4-yl)-3,4-dihydropyrrolo[1,2-c]pyrimidin-1(2H)-one], 6 nM.
